Reference: PubChem BioAssay AID602234 (The Scripps Research Institute Molecular Screening Center, 2012)
Calls of active or inactive are those of the source. The rule behind the calls is not given here.

Assay: NCOA3 reporter inhibition potency – cell-based, luminescence, counter-screen for SRC1 inhibitor project, dose response (AID 602234);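 note: HEK293 cells co-transfected with pGL4.31 reporter and pBIND-SRC3 fusion vector; potency for inhibition of reporter luminescence with Gossypol as full inhibition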
Settings: transfected HEK293 cells, counter-screen luciferase reporter

With `O=C(N/N=C/c1cc(Br)ccc1O)C(c1ccncc1)N1CCOCC1` (stereo unspecified) the IC50 was inactive: > 12 µM.
